Data as given in patent publication US20260193285A1, “GRAMINE-PLATINUM (IV) COMPLEX AS WELL AS PREPARATION METHOD THEREFOR AND ANTI-TUMOR USE THEREOF” (TIANJIN MEDICAL UNIVERSITY CANCER INSTITUTE & HOSPITAL, priority 2022, published 2026).

System: KPC tumor model
Experiment: In vivo anti-tumor activity, pancreatic cancer KPC model
Conditions: Pt 3.0 mg/kg
Protocol: Firstly, a KPC tumor model was established using C57BL/6 female mice 4-5 weeks old. […] The drugs were formulated at a Pt concentration of 3.0 mg/kg, once every 3 days and five times in total, while the body weight and tumor volume of the mice were measured every 3 days. The mice were sacrificed and the organs (heart, liver, spleen, lung, kidney) and tumors thereof were excised. The tumors were used for flow cytometry to determine the content of immune cells.

O=C1[O][Pt]2([NH][C@@H]3CCCC[C@H]3[NH]2)[O]C1=O [OXP, oxaliplatin]
body weight change of mice: decline all the time
